We go through two compounds from patent US20230270750A1, “CARBALDEHYDE OXIMES AS BUTYRYLCHOLINESTERASE REACTIVATORS” (published 2023).

Protein sequences, listed by entry. Tags and fused reporters are not part of them. Residues count along the entry.
UniProt P06276, 29-557 N45Q/N483Q/N509Q/N514Q limits assumed: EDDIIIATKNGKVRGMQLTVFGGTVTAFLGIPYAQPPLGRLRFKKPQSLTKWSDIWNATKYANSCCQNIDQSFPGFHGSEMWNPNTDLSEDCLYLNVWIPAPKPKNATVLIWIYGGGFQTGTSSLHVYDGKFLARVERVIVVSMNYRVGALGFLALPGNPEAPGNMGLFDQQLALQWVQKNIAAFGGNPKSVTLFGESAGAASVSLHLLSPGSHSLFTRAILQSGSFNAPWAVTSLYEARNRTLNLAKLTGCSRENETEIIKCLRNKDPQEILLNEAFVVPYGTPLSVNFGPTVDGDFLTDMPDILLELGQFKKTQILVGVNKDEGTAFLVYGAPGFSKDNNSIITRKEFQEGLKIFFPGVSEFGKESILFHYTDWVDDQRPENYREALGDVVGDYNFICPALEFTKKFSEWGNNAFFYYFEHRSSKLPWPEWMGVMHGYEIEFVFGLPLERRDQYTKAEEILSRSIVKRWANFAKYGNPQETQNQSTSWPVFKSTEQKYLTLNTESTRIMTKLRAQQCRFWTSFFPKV

This test has as its target OP-inhibited hBChE (Homo sapiens, UniProt P06276, N45Q/N483Q/N509Q/N514Q). The experiment in a line: Oxime reactivation of OP-inhibited hBChE (modified Ellman assay, BTCh).
Where [1] appears, read: Paraoxon-inhibited hBChE, Table 1.
[2] abbreviates: Paraoxon-inhibited hBChE, Table 5.

In the case of HI-6, the kr (POX-inhibited hBChE, Table 7) was found to be 0 min⁻¹; the kr under setting [2] was found to be 0 min⁻¹; the kr (Sarin-inhibited hBChE, Table 5) was found to be 0.3 ± 0.02 min⁻¹; the kr (Sarin-inhibited hBChE, Table 7) is 0.3 ± 0.02 min⁻¹; the kr (VX-inhibited hBChE, Table 5) stood at 0.03 ± 0.002 min⁻¹; the kr (VX-inhibited hBChE, Table 7) came to 0.03 ± 0.002 min⁻¹. Further, the kr2 runs as follows: (POX-inhibited hBChE, Table 7) 0 M⁻¹ s⁻¹; under setting [2], 0 M⁻¹ s⁻¹; (Sarin-inhibited hBChE, Table 5) 13 M⁻¹ s⁻¹; (Sarin-inhibited hBChE, Table 7) 13 M⁻¹ s⁻¹; (VX-inhibited hBChE, Table 5) 1.7 M⁻¹ s⁻¹; (VX-inhibited hBChE, Table 7) 1.7 M⁻¹ s⁻¹. For the same compound, the KD result under setting [1] was “∅”. Further, the Kr result is, setting by setting: under setting [1], “∅”; (Sarin-inhibited hBChE, Table 1) 0.3 ± 0.02 min⁻¹; (VX-inhibited hBChE, Table 1) 0.03 ± 0.002 min⁻¹. In addition, the Kr2 entry is, setting by setting: under setting [1], “∅”; (Sarin-inhibited hBChE, Table 1) 12 M⁻¹ s⁻¹; (VX-inhibited hBChE, Table 1) 1.7 M⁻¹ s⁻¹. Further, the Kd (commonly the free concentration of one partner at which half of the binding sites on the other are occupied at equilibrium, for simple one-to-one binding) runs as follows: (Sarin-inhibited hBChE, Table 1) 409 µM; (Sarin-inhibited hBChE, Table 5) 409 µM; (Sarin-inhibited hBChE, Table 7) 409 µM; (VX-inhibited hBChE, Table 1) 307 µM; (VX-inhibited hBChE, Table 5) 307 µM; (VX-inhibited hBChE, Table 7) 307 µM.

In the case of `O/N=C/c1nc(CCCCC[N+]23CCC(CC2)CC3)ccc1O`, where the note is “VX-inhibited hBChE, Table 7”, the Kd was determined as 23 µM, the kr worked out at 0.2 ± 0.01 min⁻¹ and the kr2 worked out at 167 M⁻¹ s⁻¹.
